Tested on: CSML100 cells
Assay: S100A4-positive lung metastasis tumor model, alone or in combinations (Example 25)
Assay type: in vivo, mouse
Conditions: CSML100 i.v. in A/J mice; PTX i.v. 10 mg/kg on day 1, 4, 7; mean±SEM
Experimental: Amlexanox solution for injections was prepared according to the Example 4. […] The animals were then divided randomly into 9 groups (n=9 except for control group): 1) intact control (n=13, saline); 2) Amlexanox (i.v. 100 mg/kg); 3) Amlexanox ([…]. 3 mg/kg); 5) Amlexanox ([…]. 3 mg/kg); 6) Dox (i.v. 3 mg/kg); 7) Amlexanox (p.o. 200 mg/kg)+Dox (i.v. 3 mg/kg); 8) PTX (i.v. 10 mg/kg), and 9) Amlexanox ([…]. 10 mg/kg). […] The treatments were started on the day following the tumor cell implantation and continued for 10 consecutive days. Cytotoxic drugs, TPT, Dox or PTX, were administrated intravenously on day 1, 4, and 7 after tumor implantation. The animal body weight was recorded as an index of treatment toxicity during the experiment. The data in Table show metastasis development. The data are expressed as mean±SEM for the number of metastatic sites on the lung surface.

SMILES: CC(=O)O[C@H]1C(=O)[C@@]2(C)[C@H]([C@H](OC(=O)c3ccccc3)[C@]3(O)C[C@H](OC(=O)[C@H](O)[C@@H](NC(=O)c4ccccc4)c4ccccc4)C(C)=C1C3(C)C)[C@]1(OC(C)=O)CO[C@@H]1C[C@@H]2O [PTX, paclitaxel]
- Lung Metastasis Number per Animal: 40.8 ± 9.48

Reference: patent US7772255B2, “Method of treating tumors with azaxanthones” (Supratek Pharma, Inc., priority 2005, dated 2010)
